Ab-14 heavy chain CDR variants: yeast mating affinities

All variants were tested on one target, the spike HR2 peptide PDVDLGDISGINAS (SARS-CoV-2).

The variants keep the light chain, the linker and the frameworks of Ab-14 (scFv order VH, three GGGGS repeats, VL).
VH: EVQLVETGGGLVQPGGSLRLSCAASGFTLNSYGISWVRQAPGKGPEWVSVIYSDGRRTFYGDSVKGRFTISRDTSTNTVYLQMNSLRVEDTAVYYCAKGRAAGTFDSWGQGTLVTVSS
VL: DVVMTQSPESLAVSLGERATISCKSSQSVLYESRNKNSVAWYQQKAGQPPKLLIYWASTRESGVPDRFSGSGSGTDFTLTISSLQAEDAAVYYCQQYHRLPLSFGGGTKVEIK

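The parent was found by panning a naive human phage display library on the peptide. This is the validation round: designs drawn from the data on random variants, tested in the same kind of assay. Their group label is 14H_En_Gibbs (En: ensemble of fine-tuned language models; Gibbs: Gibbs sampling). Affinity was read by AlphaSeq, a pooled yeast mating assay with surface-displayed partners. Pairs that bind mate more often; barcode pairs of the diploids are counted by sequencing. Each replicate has its own calibration line, from reference interactions of the BCL2 family. The assay was run in six technical replicates.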

The whole VH of each variant is written out.
The read-out is the apparent dissociation constant on a log10 scale (nM): the lower, the stronger.
Replicates are averaged; those with no signal do not enter the mean.
A pair that was not seen in that replicate is written "nd"; this usually means weak binding, but a binder can also be missed.
Of ten entries with the parent sequence, four were seen in most replicates (averages 0.34 to 2.37), three in one and three in none, so single entries are noisy.

{"VH": "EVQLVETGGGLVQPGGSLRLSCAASGDNLDEYGISWVRQAPGKGPEWVSVIYADGQRTAYDDPVKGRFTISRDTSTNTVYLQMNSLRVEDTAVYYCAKGGQTVTVMVWGQGTLVTVSS", "log10 Kd (nM) by replicate": "nd / nd / nd / nd / nd / nd", "mean log10 Kd (nM)": "nd", "empty controls": "0 of 18"}
{"VH": "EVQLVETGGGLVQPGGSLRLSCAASGEELEEYGISWVRQAPGKGPEWVSVIYADGRKQSYSDSVKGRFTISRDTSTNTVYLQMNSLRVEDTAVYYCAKGAIAGNFDAWGQGTLVTVSS", "log10 Kd (nM) by replicate": "nd / nd / nd / 1.86 / nd / nd", "mean log10 Kd (nM)": "1.86", "empty controls": "0 of 18"}
{"VH": "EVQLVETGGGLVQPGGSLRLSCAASGQDLAEYGISWVRQAPGKGPEWVSVIYADGKRTMYANDVKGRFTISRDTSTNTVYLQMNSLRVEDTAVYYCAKGTNDGQGGTWGQGTLVTVSS", "log10 Kd (nM) by replicate": "nd / nd / nd / nd / nd / nd", "mean log10 Kd (nM)": "nd", "empty controls": "0 of 18"}
{"VH": "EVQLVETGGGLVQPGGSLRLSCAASGDGLKEYGISWVRQAPGKGPEWVSVIYADGMRTSYVNQVKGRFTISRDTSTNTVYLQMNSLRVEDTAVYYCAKGQKSGGFNLWGQGTLVTVSS", "log10 Kd (nM) by replicate": "nd / nd / nd / nd / nd / nd", "mean log10 Kd (nM)": "nd", "empty controls": "0 of 18"}
{"VH": "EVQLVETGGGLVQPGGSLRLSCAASGFGLDEYGISWVRQAPGKGPEWVSVIYADGFRAYYHDNVKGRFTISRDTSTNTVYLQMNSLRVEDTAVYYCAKGFNSDVDILWGQGTLVTVSS", "log10 Kd (nM) by replicate": "nd / nd / nd / nd / nd / nd", "mean log10 Kd (nM)": "nd", "empty controls": "0 of 18"}
{"VH": "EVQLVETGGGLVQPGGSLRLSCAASGEDLQEYGISWVRQAPGKGPEWVSVIYADGQRQEYSDDVKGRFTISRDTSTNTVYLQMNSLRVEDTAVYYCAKGQVAGHFLHWGQGTLVTVSS", "log10 Kd (nM) by replicate": "nd / nd / nd / nd / nd / nd", "mean log10 Kd (nM)": "nd", "empty controls": "0 of 18"}
{"VH": "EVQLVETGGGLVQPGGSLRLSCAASGFDLNEYGVSWVRQAPGKGPEWVSVIYADGYRASYADKVKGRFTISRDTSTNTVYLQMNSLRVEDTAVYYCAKGFNFGQDIVWGQGTLVTVSS", "log10 Kd (nM) by replicate": "nd / nd / nd / nd / nd / nd", "mean log10 Kd (nM)": "nd", "empty controls": "1 of 18 (2.78)"}
{"VH": "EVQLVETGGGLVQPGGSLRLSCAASGFQLDEYGISWVRQAPGKGPEWVSVIYADGLRTVYKDAVKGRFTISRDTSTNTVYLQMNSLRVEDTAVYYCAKGSDTGLFMIWGQGTLVTVSS", "log10 Kd (nM) by replicate": "nd / nd / nd / nd / nd / nd", "mean log10 Kd (nM)": "nd", "empty controls": "1 of 18 (1.26)"}
{"VH": "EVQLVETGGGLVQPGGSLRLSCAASGFDIEEYGISWVRQAPGKGPEWVSVIYADGVRAMYSSNFKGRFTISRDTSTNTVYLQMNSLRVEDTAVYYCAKGKIAGTGLTWGQGTLVTVSS", "log10 Kd (nM) by replicate": "nd / nd / nd / nd / nd / nd", "mean log10 Kd (nM)": "nd", "empty controls": "0 of 18"}
{"VH": "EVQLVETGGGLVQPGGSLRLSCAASGFDLDECGISWVRQAPGKGPEWVSVIYADGRRQMYAVSFKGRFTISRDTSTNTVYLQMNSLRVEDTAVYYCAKGEIGGTFLMWGQGTLVTVSS", "log10 Kd (nM) by replicate": "nd / nd / nd / nd / nd / nd", "mean log10 Kd (nM)": "nd", "empty controls": "0 of 18"}
{"VH": "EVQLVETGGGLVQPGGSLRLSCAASGFDVEEYGISWVRQAPGKGPEWVSVIYADGMRSSYSQSVKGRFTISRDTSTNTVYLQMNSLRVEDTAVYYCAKGEYSGNIYVWGQGTLVTVSS", "log10 Kd (nM) by replicate": "3.19 / nd / nd / nd / nd / nd", "mean log10 Kd (nM)": "3.19", "empty controls": "1 of 18 (0.88)"}
{"VH": "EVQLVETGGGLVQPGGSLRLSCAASGFNLDEYGISWVRQAPGKGPEWVSVIYADGMRTAFGDNVKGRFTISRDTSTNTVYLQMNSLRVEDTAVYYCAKGTVFGDFVFWGQGTLVTVSS", "log10 Kd (nM) by replicate": "nd / nd / nd / nd / nd / nd", "mean log10 Kd (nM)": "nd", "empty controls": "0 of 18"}
{"VH": "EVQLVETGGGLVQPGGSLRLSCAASGFDVEEYGISWVRQAPGKGPEWVSVIYADGRRSQYANSVKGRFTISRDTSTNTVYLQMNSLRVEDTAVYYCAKGAIGGTFDMWGQGTLVTVSS", "log10 Kd (nM) by replicate": "0.11 / 0.10 / -0.05 / 0.09 / 0.09 / 0.58", "mean log10 Kd (nM)": "0.15", "empty controls": "3 of 18 (2.80)"}
{"VH": "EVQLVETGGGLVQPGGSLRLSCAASGFSIDEQGISWVRQAPGKGPEWVSVIYADGIRASYAPKVKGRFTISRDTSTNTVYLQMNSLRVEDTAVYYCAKGQYAGDFIEWGQGTLVTVSS", "log10 Kd (nM) by replicate": "nd / nd / nd / nd / nd / nd", "mean log10 Kd (nM)": "nd", "empty controls": "0 of 18"}
{"VH": "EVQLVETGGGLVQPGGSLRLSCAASGFDLNEYGISWVRQAPGKGPEWVSVIYADGIRTAYSKKVKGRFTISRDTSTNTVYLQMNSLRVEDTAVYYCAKGMDGIVILFWGQGTLVTVSS", "log10 Kd (nM) by replicate": "nd / nd / nd / nd / nd / nd", "mean log10 Kd (nM)": "nd", "empty controls": "0 of 18"}
{"VH": "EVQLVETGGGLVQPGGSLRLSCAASGFDLDEYGISWVRQAPGKGPEWVSVIYADGTRKYYADNVKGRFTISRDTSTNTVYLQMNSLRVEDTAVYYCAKGDYHYVNSTWGQGTLVTVSS", "log10 Kd (nM) by replicate": "nd / nd / nd / nd / nd / nd", "mean log10 Kd (nM)": "nd", "empty controls": "0 of 18"}
{"VH": "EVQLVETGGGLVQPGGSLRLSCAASGFQLDEYGISWVRQAPGKGPEWVSVIYADGMRTMYADSFKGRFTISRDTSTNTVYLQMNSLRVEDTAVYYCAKGMKSVNIGDWGQGTLVTVSS", "log10 Kd (nM) by replicate": "nd / nd / nd / nd / nd / nd", "mean log10 Kd (nM)": "nd", "empty controls": "0 of 18"}
{"VH": "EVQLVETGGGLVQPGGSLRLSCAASGFELQEYGISWVRQAPGKGPEWVSVIYADGMRTAYSDNVKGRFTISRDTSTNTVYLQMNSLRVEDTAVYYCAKGDAVGIFHVWGQGTLVTVSS", "log10 Kd (nM) by replicate": "nd / nd / nd / nd / nd / nd", "mean log10 Kd (nM)": "nd", "empty controls": "0 of 18"}
{"VH": "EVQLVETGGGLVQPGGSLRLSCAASGFDLENYGISWVRQAPGKGPEWVSVIYADGIRKVYDQSVKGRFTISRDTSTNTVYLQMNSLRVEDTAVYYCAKGQMGTTFTVWGQGTLVTVSS", "log10 Kd (nM) by replicate": "nd / nd / nd / nd / nd / nd", "mean log10 Kd (nM)": "nd", "empty controls": "0 of 18"}

A selection of 3 entries from above:

{"VH": "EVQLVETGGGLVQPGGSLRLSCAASGFDIEEYGISWVRQAPGKGPEWVSVIYADGVRAMYSSNFKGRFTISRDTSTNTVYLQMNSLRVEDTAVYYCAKGKIAGTGLTWGQGTLVTVSS", "log10 Kd (nM) by replicate": "nd / nd / nd / nd / nd / nd", "mean log10 Kd (nM)": "nd", "empty controls": "0 of 18"}
{"VH": "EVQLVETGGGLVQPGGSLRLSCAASGFGLDEYGISWVRQAPGKGPEWVSVIYADGFRAYYHDNVKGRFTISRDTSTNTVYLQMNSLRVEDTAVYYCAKGFNSDVDILWGQGTLVTVSS", "log10 Kd (nM) by replicate": "nd / nd / nd / nd / nd / nd", "mean log10 Kd (nM)": "nd", "empty controls": "0 of 18"}
{"VH": "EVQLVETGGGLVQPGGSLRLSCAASGFDLENYGISWVRQAPGKGPEWVSVIYADGIRKVYDQSVKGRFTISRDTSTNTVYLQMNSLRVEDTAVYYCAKGQMGTTFTVWGQGTLVTVSS", "log10 Kd (nM) by replicate": "nd / nd / nd / nd / nd / nd", "mean log10 Kd (nM)": "nd", "empty controls": "0 of 18"}

The authors averaged sequences with at least three values out of six and counted those with two or fewer as poor binders.
A sequence measured in both rounds can read differently, since the two assays cover different ranges.
Three control strains display no target. For all heavy chain designs, 1% of the pairings with them gave a signal, with a median of 2.08 and one signal in twenty below 0.84, so weak values seen in few replicates may be background. The control count says in how many pairings with the empty strains this scFv gave a signal, with their mean in brackets.

Source: Li et al. 2023 (doi:10.1038/s41467-023-39022-2), MIT Lincoln Laboratory and A-Alpha Bio; data file from the FLAb repository.